From ChEMBL document CHEMBL1133964, “Synthesis and biological data of 4-amino-1-(2-chloro-2-phenylethyl)-1H-pyrazolo[3,4-b]pyridine-5-carboxylic acid ethyl esters, a new series of A1-adenosine receptor (A1AR) ligands” (Bioorg Med Chem Lett, 2001)

Key:
[1] = tested on: Adenosine receptor A2a (Bos taurus); experiment: Percent inhibition of [3H]CGS-21680 binding to A2A adenosine receptor of bovine striatal membrane at 10 uM
[2] = tested on: Adenosine receptor A3 (Bos taurus); experiment: Percent inhibition of [125I]AB-MECA binding at Adenosine A3 receptor in bovine cortical membrane at 10 uM

| SMILES | inhibition [1] [%] | inhibition [2] [%] |
| --- | --- | --- |
| CCOC(=O)c1cnc2c(cnn2CC(Cl)c2ccccc2)c1NC(C)(C)C (stereo not drawn) | 19 |  |
| CCOC(=O)c1cnc2c(cnn2CC(Cl)c2ccccc2)c1N1CCCC1 (stereo not drawn) | 17 | 0 |
| CCOC(=O)c1cnc2c(cnn2CC(Cl)c2ccccc2)c1NCCc1ccccc1 (stereo not drawn) | 4 | 34 |

More lines, now with the values ahead:

| inhibition [1] [%] | inhibition [2] [%] | SMILES |
| --- | --- | --- |
| 11 | 23 | CCCNc1c(C(=O)OCC)cnc2c1cnn2CC(Cl)c1ccccc1 (stereo not drawn) |
| 2 |  | CCOCCNc1c(C(=O)OCC)cnc2c1cnn2CC(Cl)c1ccccc1 (stereo not drawn) |
